The chains behind the UniProt entries cited, without tags or fusion partners.
UniProt Q9JHG7, whole entry: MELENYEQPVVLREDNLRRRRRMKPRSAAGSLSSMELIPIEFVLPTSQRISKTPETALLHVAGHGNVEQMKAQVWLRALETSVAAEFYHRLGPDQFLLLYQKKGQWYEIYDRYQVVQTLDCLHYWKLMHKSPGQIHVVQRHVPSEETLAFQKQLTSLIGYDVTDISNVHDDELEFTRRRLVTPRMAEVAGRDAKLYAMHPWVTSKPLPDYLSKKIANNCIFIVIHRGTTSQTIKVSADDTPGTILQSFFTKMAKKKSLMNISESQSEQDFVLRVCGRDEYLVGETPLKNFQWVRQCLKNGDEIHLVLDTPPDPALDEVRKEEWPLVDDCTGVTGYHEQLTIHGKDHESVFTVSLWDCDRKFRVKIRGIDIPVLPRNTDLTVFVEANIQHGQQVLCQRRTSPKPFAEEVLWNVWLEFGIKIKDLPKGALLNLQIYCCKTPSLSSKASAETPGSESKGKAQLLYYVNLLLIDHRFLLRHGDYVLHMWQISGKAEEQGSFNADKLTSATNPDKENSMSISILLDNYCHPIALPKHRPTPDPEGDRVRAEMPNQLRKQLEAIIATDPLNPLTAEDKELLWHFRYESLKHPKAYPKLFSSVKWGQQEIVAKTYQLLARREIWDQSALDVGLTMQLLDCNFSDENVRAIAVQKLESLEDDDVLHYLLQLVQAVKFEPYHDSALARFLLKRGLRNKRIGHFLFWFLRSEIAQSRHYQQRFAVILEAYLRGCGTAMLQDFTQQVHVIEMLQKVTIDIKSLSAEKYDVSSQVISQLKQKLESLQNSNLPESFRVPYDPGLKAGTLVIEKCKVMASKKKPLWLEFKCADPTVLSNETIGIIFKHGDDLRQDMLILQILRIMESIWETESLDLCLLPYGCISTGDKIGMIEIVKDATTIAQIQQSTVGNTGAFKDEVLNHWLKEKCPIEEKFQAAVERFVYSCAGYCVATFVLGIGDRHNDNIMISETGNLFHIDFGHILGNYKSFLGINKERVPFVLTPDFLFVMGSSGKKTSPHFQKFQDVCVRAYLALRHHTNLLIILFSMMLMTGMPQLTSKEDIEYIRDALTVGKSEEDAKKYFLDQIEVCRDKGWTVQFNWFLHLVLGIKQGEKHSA
UniProt P42338, whole entry: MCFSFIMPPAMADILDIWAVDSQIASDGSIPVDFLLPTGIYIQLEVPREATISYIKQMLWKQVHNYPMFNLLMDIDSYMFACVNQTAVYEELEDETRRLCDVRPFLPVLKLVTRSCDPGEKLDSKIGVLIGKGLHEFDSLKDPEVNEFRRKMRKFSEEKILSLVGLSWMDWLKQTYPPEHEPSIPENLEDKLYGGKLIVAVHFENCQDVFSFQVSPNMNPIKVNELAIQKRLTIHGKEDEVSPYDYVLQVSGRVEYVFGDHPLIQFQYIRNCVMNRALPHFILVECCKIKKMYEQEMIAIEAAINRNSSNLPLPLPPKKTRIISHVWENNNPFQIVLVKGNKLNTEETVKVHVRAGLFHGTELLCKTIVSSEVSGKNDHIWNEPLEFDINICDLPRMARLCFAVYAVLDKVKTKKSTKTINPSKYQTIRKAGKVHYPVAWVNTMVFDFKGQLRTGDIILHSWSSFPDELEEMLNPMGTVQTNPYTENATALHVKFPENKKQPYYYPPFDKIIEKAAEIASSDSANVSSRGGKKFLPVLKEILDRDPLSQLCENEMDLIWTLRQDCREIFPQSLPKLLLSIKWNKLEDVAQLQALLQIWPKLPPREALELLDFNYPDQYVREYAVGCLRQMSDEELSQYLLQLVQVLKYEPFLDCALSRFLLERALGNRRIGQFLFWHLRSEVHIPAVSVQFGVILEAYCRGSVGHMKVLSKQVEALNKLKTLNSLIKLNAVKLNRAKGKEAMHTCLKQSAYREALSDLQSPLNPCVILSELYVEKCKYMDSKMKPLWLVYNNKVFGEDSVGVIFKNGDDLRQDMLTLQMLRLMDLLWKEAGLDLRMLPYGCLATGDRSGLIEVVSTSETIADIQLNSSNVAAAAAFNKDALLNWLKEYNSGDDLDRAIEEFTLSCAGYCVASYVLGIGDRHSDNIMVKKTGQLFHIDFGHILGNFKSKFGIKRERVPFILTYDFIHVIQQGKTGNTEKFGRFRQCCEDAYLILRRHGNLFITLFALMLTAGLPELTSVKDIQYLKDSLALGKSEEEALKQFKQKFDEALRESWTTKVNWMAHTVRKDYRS
UniProt P48736, whole entry: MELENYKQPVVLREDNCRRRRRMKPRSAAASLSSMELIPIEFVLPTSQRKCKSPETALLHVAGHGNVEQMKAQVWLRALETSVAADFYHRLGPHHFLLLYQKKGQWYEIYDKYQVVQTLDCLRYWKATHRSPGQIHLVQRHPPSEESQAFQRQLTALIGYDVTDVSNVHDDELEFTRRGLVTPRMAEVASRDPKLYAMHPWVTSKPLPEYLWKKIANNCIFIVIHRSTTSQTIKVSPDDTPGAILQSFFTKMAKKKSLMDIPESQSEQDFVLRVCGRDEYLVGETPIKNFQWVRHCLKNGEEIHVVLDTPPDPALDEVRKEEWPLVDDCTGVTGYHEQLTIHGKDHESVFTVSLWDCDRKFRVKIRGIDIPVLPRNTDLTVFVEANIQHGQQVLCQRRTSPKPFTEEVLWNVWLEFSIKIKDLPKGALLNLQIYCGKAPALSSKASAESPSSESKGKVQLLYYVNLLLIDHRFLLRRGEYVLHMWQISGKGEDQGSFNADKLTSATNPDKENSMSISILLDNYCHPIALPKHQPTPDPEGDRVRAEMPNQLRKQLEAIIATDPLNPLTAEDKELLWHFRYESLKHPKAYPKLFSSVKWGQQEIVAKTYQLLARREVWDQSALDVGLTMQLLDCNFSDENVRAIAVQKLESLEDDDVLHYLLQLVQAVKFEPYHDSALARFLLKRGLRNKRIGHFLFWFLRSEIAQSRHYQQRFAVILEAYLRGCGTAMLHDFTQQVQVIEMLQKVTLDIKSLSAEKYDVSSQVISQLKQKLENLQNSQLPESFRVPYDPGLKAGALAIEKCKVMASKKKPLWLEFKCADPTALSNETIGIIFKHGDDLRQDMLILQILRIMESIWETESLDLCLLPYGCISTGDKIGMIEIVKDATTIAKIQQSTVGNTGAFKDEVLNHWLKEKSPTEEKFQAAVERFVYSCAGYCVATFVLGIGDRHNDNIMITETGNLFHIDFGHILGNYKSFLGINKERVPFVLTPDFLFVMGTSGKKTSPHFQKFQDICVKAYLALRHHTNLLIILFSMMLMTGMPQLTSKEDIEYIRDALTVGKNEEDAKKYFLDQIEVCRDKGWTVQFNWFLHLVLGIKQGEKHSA

In patent US10941162B2, “Heterocyclic compounds and uses thereof” (Infinity Pharmaceuticals, Inc., priority 2014, dated 2021):

Tests used:
[1] = molecular target: p110 γ (Mus musculus (Mouse), UniProt Q9JHG7); assay: Raw264.7 p110 γ assay (PI3K-γ selective cellular assay, phospho-AKT); conditions: ratio of RAJI p110 δ IC50 to Raw264.7 p110 γ IC50
Excerpt: A compound's ability in selectively inhibiting PI3K-γ can be assessed using RAW264.7 macrophages. Briefly, serum-starved RAW264.7 cells are stimulated with a known GPCR agonist C5a. See, e.g., Camps et al., Nature Medicine (2005) 11(9):936-943. Cells can be treated with test compounds prior to, simultaneously with, or subsequent to the stimulation by C5a. RAW 264.7 cells respond to the complement component fragment C5a through activation of the C5a receptor, and the C5a receptor activates macrophages and induces cell migration. Test compounds' ability to inhibit C5a-mediated AKT phosphorylation is indicative of selective inhibition of PI3K-γ. Thus, by monitoring the reduction of phospho-AKT in stimulated RAW 264.7 cells (using for example, phospho-AKT antibodies), a compound's potential efficacy in selectively inhibiting PI3Kγ can be assessed.
Certain compounds provided herein were tested in RAW 264.7 cell model using procedures as described above.

[2] = molecular target: PI3K β (Homo sapiens, UniProt P42338); assay: PI3-Kinase in vitro IC50 assay, β isoform; format: biochemical; conditions: read-out: PI3K β IC50
Excerpt: A PI3-Kinase HTRF® assay kit (cat No. 33-016) purchased from Millipore Corporation is used to screen compounds provided herein. This assay uses specific, high affinity binding of the GRP1 pleckstrin homology (PH) domain to PIP3, the product of a Class 1A or 1B PI3 Kinase acting on its physiological substrate PIP2. During the detection phase of the assay, a complex is generated between the GST-tagged PH domain and biotinylated short chain PIP3. The biotinylated PIP3 and the GST-tagged PH domain recruited fluorophores (Streptavidin-Allophycocyanin and Europium-labeled anti-GST respectively) to form the fluorescence resonance energy transfer (FRET) architecture, generating a stable time-resolved FRET signal. The FRET complex is disrupted in a competitive manner by non-biotinylated PIP3, a product formed in the PI3 Kinase assay. PI3 Kinase α, β, γ or δ activity is assayed using the PI3 Kinase HTRF®, assay kit (catalogue No. 33-016) purchased from Millipore Corporation. […] The assay is carried out in 384-well format and detected using a Perkin Elmer EnVision Xcite Multilabel Reader. […] Plates are then read on Envision plate reader in luminescence mode. Data are converted to % inhibition using the following equation below: [formula] where S is the sample luminescence, Pos is a positive control without added PI3K, Neg is the negative control without added compound. […]

[3] = molecular target: PI3K γ (Homo sapiens (Human), UniProt P48736); assay: PI3-Kinase in vitro IC50 assay, γ isoform; conditions: ratio of PI3K δ IC50 to PI3K γ IC50
Excerpt: A PI3-Kinase HTRF® assay kit (cat No. 33-016) purchased from Millipore Corporation is used to screen compounds provided herein. This assay uses specific, high affinity binding of the GRP1 pleckstrin homology (PH) domain to PIP3, the product of a Class 1A or 1B PI3 Kinase acting on its physiological substrate PIP2. During the detection phase of the assay, a complex is generated between the GST-tagged PH domain and biotinylated short chain PIP3. The biotinylated PIP3 and the GST-tagged PH domain recruited fluorophores (Streptavidin-Allophycocyanin and Europium-labeled anti-GST respectively) to form the fluorescence resonance energy transfer (FRET) architecture, generating a stable time-resolved FRET signal. […]
PI3 Kinase α, β, γ or δ activity is assayed using the PI3 Kinase HTRF®, assay kit (catalogue No. 33-016) purchased from Millipore Corporation. […] The assay is carried out in 384-well format and detected using a Perkin Elmer EnVision Xcite Multilabel Reader. […]
Promega ADP-Glo Max assay kit (Cat. No. V7002) can be utilized to determine IC50 values for α, β, δ and γ isoforms of human Class I PI3 kinases (Millipore). […] Plates are then read on Envision plate reader in luminescence mode. […]
[formula] where S is the sample luminescence, Pos is a positive control without added PI3K, Neg is the negative control without added compound. […]

- RAJI δ/Raw264.7 γ IC50 (selectivity) [1]: W (W = >1 to <10)
- pIC50 [2]: 5.00 to 5.30
- PI3K δ/PI3K γ IC50 (selectivity) [3]: W (W = >1 to <10)
SMILES: Cc1nn(C)cc1C#Cc1cccc2cc(C(C)NC(=O)c3c(N)nn4cccnc34)c(-c3ccccc3)nc12 (stereo not drawn)

pIC50: −log10 of the molar value.
